In US20260382736A1, “TAXOL CONJUGATE COMPOUNDS, COMPOSITIONS AND METHODS FOR THEIR USE” (published 2026):

Experiments:
[1] = Drug distribution in tissues after third i.p. or i.v. dose of compound of Formula (II); conditions: for Concentration in brain / Concentration in heart / Concentration in kidney / Concentration in liver / Concentration in lung / Concentration in plasma: 2 h after third dose, QW × 3
[2] = Plasma stability in different species, overall statement
[3] = tested on: NCI-H460-luc2 human intracranial cells; test: Survival in intracranial NCI-H460-luc2 model (brain cancer efficacy); conditions: for Increase Life Span (%): vs vehicle
[4] = I.V. PK in Balb/c mice; conditions: compound of Formula (II) 2.7 mg/kg IV
[5] = Single-dose I.P. PK in CD-1 mice; conditions: for system exposure versus dose (in words): compound of Formula (II) I.P. from 5.9 to 23.8 mg/kg
[6] = Single-dose I.V. and I.P. PK in Beagle dogs
[7] = Single-dose I.V. and I.P. PK in male SD rats; conditions: for systemic exposure across species (in words): I.V. administration, rats vs mice or dogs; for Cmax and AUC, I.V. versus IP (in words) / T1/2, I.V. versus I.P. (in words): compound of Formula (II) 5.9 mg/kg I.V. or I.P.
[8] = compound of Formula (II) dosed 2.7 mg/kg i.v.
[9] = compound of Formula (II) dosed 5.9 mg/kg i.p.
[10] = Table 2-7, compound of Formula (II) 5.9 mg/kg IP, mice
[11] = compound of Formula (II) dosed 5.9 mg/kg I.P., mean
[12] = compound of Formula (II) dosed 23.8 mg/kg I.P., mean
[13] = compound of Formula (II) 6 mg/kg IV, dog
[14] = compound of Formula (II) dosed 1 mg/kg I.V.
[15] = compound of Formula (II) dosed 3 mg/kg I.P.
[16] = Table 2-7, compound of Formula (II) 5.9 mg/kg IP, rat
[17] = compound of Formula (II) 6 mg/kg IV, rat
[18] = compound of Formula (II) dosed 5.9 mg/kg I.V., mean
[19] = paclitaxel dosed 10 mg/kg I.P., mean

With `CC(=O)N[C@@H](CSSCCCC(=O)O[C@@H](C(=O)O[C@H]1C[C@@]2(O)[C@@H](OC(=O)c3ccccc3)[C@@H]3[C@]4(OC(C)=O)CO[C@@H]4C[C@H](O)[C@@]3(C)C(=O)[C@H](OC(C)=O)C(=C1C)C2(C)C)[C@@H](NC(=O)c1ccccc1)c1ccccc1)C(=O)N[C@H](CCCNC(=N)N)C(=O)N[C@H](CCCNC(=N)N)C(=O)N[C@H](CCCNC(=N)N)C(=O)N[C@H](CCCNC(=N)N)C(=O)N[C@H](CCCNC(=N)N)C(=O)N[C@H](CCCNC(=N)N)C(=O)N[C@H](CCCNC(=N)N)C(=O)N[C@H](CCCNC(=N)N)C(N)=O` the “brain to plasma ratio (B/P ratio)” value ([1]; 2 h after third dose of compound of Formula (II)) was “about 8”, the Concentration in brain [1, 8] was “BLQ” and the Concentration in heart [1, 8] was 163 ng/g. It also gave a Concentration in kidney [1, 8] of 1704 ng/g, a Concentration in liver [1, 8] of 13260 ng/g and a Concentration in lung [1, 8] of 224 ng/g. For the same molecule, the Concentration in plasma [1, 8] was “BLQ”, the Concentration in brain [1, 9] was 85.2 ng/g and the Concentration in heart [1, 9] was “BLQ”. It also gave a Concentration in kidney [1, 9] of 846 ng/g, a Concentration in liver [1, 9] of 1992 ng/g and a Concentration in lung [1, 9] of 317 ng/g. The Concentration in plasma [1, 9] was 10.7 ng/g, the “tissue distribution (in words)” value ([1]; 2 hr after third I.P. or I.V. administration of compound of Formula (II)) was “the highest tissue exposure was observed in liver, and the exposure in liver via I.V. administration at lower dose was much higher than I.P. administration” and the “half-life in plasma, comparison with Compound 5 (in words)” value [2] was “longer half-life in plasma in different species”. The “Median Survival Time (MST)” value ([3]; 9.6 mg/kg) was 14 days, the “Increase Life Span (%)” value ([3]; 9.6 mg/kg) was 0.00% and the “Median Survival Time (MST)” value ([3]; 19.2 mg/kg, ± SEM) was 10 ± 2 days. The “survivors at the end point” value ([3]; 38.4 mg/kg group) was “one mouse in Compound of Formula (II) 38.4 mg/kg group was still alive”, the “Increase Life Span (%)” value ([3]; 38.4 mg/kg) was 0.00% and the “Median Survival Time (MST)” value ([3]; 38.4 mg/kg, ± SEM) was 14 days and 14 ± 1 days. For the same molecule, the AUC0-t [4] was 639 nM·h, the “AUC0-∞” value [4] was 678 nM·h and the Cmax [4] was 2320 nM. The Tmax [4] was 3 min, the t1/2 [4] was 17.3 min and the AUC0-t [5, 10] was 8.65 nmol·h/L. The “AUC0-∞” value [5, 10] was 12.89 nM·h, the Cmax [5, 10] was 11.87 nmol/L and the Tmax [5, 10] was 15 min. The t1/2 [5, 10] was 44.5 min, the “system exposure versus dose (in words)” value [5] was “increased more than dose proportionally as dose levels increased” and the AUC0-inf [5, 11] was 12.888 nmol·h/L. The AUC0-t [5, 11] was 8.651 nmol·h/L, the AUMC0-inf [5, 11] was 18.041 h*h*nmol/L and the AUMC0-t [5, 11] was 6.145 h*h*nmol/L. For the same molecule, the Cl_F_obs [5, 11] was 324.56 L/h/kg, the Cmax [5, 11] was 11.872 nmol/L and the Kel [5, 11] was 1.095 h⁻¹. The MRTlast [5, 11] was 0.695 h, the T1/2 [5, 11] was 43.3 min and the Vz_Fo_bs [5, 11] was 317.1 L/kg. For the same molecule, the AUC0-inf [5, 12] was 54.595 nmol·h/L, the AUC0-t [5, 12] was 50.585 nmol·h/L and the AUMC0-inf [5, 12] was 37.382 h*h*nmol/L. For the same molecule, the AUMC0-t [5, 12] was 26.304 h*h*nmol/L, the Cl_F_obs [5, 12] was 333.919 L/h/kg and the Cmax [5, 12] was 88.576 nmol/L. For the same molecule, the Kel [5, 12] was 1.323 h⁻¹, the MRTlast [5, 12] was 0.532 h and the T1/2 [5, 12] was 31.8 min. The Vz_Fo_bs [5, 12] was 261.409 L/kg, the AUC0-t [6, 13] was 6260 nM·h and the “AUC0-∞” value [6, 13] was 6340 nM·h. For the same molecule, the Cmax [6, 13] was 4340 nM, the Tmax [6, 13] was 33 min and the t1/2 [6, 13] was 80.4 min. The AUC0-t [6, 14] was 680 nM·h, the “AUC0-∞” value [6, 14] was 681 nM·h and the Cmax [6, 14] was 819 nM. For the same molecule, the Tmax [6, 14] was 3 min, the t1/2 [6, 14] was 27.6 min and the AUC0-t [6, 15] was 622 nM·h. The “AUC0-∞” value [6, 15] was 625 nM·h, the Cmax [6, 15] was 348 nM and the “F % (bioavailability)” value [6, 15] was 30.5%. The Tmax [6, 15] was 11.6 min, the t1/2 [6, 15] was 47.4 min and the “systemic exposure I.V. versus I.P. after dose normalization (in words)” value ([6]; compound of Formula (II) dosed I.V. and I.P.) was “by I.V. administration was much higher than I.P. administration”. For the same molecule, the “systemic exposure across species (in words)” value [7] was “observed in rats compared to mice or dogs”, the AUC0-t [7, 16] was 276 nM·h and the “AUC0-∞” value [7, 16] was 294 nM·h. For the same molecule, the Tmax [7, 16] was 23.3 min, the “Cmax and AUC, I.V. versus IP (in words)” value [7] was “by I.V. administration was much higher than IP administration” and the “T1/2, I.V. versus I.P. (in words)” value [7] was “by I.V. administration was much longer than I.P. administration”. For the same molecule, the AUC0-t [7, 17] was 3293 nM·h, the “AUC0-∞” value [7, 17] was 3356 nM·h and the Cmax [7, 17] was 10.737 µM. The Tmax [7, 17] was 30 min, the t1/2 [7, 17] was 24.9 min and the F ([7]; compound of Formula (II) dosed 5.9 mg/kg I.P.) was 9.1%. For the same molecule, the AUC0-inf [7, 11] was 294 nmol·h/L, the AUC0-t [7, 11] was 276 nM·h and the “AUC Extr” value [7, 11] was 6.3%. The Cmax [7, 11] was 0.3985 µM, the MRT [7, 11] was 2.52 h and the T1/2 [7, 11] was 2.06 h. The Tmax [7, 11] was 23.3 min, the AUC0-inf [7, 18] was 3205 nmol·h/L and the AUC0-t [7, 18] was 3139 nM·h. For the same molecule, the “AUC Extr” value [7, 18] was 2%, the C0 [7, 18] was 3485.126 nM and the CL [7, 18] was 49.96 mL/min/kg. It also gave an MRT [7, 18] of 1.79 h, a VSS [7, 18] of 7.37 L/kg and a VZ [7, 18] of 28.13 L/kg.
With `CC(=O)O[C@H]1C(=O)[C@@]2(C)[C@H]([C@H](OC(=O)c3ccccc3)[C@]3(O)C[C@H](OC(=O)[C@H](O)[C@@H](NC(=O)c4ccccc4)c4ccccc4)C(C)=C1C3(C)C)[C@]1(OC(C)=O)CO[C@@H]1C[C@@H]2O` the “Median Survival Time (MST)” value ([3]; 10 mg/kg, ± SEM) was 10 days and 10 ± 1 days, the “systemic exposure and release of paclitaxel across species (in words)” value ([5]; I.P. administration, mice vs rats or dogs) was “higher in mice than rats or dogs” and the “system exposure versus dose (in words)” value [5] was “increased less than dose proportionally as dose levels increased”. It also gave an AUMC0-inf [5, 11] of 39776.15 h*h*nmol/L, an AUMC0-t [5, 11] of 19837.331 h*h*nmol/L and a Cl_F_obs [5, 11] of 3.138 L/h/kg. The Kel [5, 11] was 0.068 h⁻¹, the MRTlast [5, 11] was 11.602 h and the Vz_Fo_bs [5, 11] was 62.063 L/kg. The AUMC0-inf [5, 12] was 109886.96 h*h*nmol/L, the AUMC0-t [5, 12] was 72372.302 h*h*nmol/L and the Cl_F_obs [5, 12] was 3.899 L/h/kg. It also gave a Kel [5, 12] of 0.037 h⁻¹, an MRTlast [5, 12] of 17.837 h and a Vz_Fo_bs [5, 12] of 125.043 L/kg. For the same molecule, the AUMC0-inf [5, 19] was 12720.824 h*h*nmol/L, the AUMC0-t [5, 19] was 5845.93 h*h*nmol/L and the Cl_F_obs [5, 19] was 4.916 L/h/kg. For the same molecule, the Kel [5, 19] was 0.312 h⁻¹, the MRTlast [5, 19] was 3.063 h and the Vz_Fo_bs [5, 19] was 16.901 L/kg. For the same molecule, the “systemic exposure across species (in words)” value [7] was “observed in rats compared to mice or dogs”, the “Cmax and AUC, I.V. versus IP (in words)” value [7] was “so did its metabolite Paclitaxel” and the “T1/2, I.V. versus I.P. (in words)” value [7] was “so did its metabolite Paclitaxel”. For the same molecule, the C0 [7, 18] was 244 nM.

Where “and” joins values, the source holds several entries; their conditions need not be identical. Equal values may be shown once.
